The assay concerns the target kappa opioid receptor (KOP-R, hOPRK1) (Homo sapiens, UniProt P41145). As to conditions: read-out: Binding IC50.

Sequences of proteins named here, by UniProt entry; tags and fusion partners are left off. A change or cut given only in a name is not applied to a line headed by its entry.
UniProt P41145: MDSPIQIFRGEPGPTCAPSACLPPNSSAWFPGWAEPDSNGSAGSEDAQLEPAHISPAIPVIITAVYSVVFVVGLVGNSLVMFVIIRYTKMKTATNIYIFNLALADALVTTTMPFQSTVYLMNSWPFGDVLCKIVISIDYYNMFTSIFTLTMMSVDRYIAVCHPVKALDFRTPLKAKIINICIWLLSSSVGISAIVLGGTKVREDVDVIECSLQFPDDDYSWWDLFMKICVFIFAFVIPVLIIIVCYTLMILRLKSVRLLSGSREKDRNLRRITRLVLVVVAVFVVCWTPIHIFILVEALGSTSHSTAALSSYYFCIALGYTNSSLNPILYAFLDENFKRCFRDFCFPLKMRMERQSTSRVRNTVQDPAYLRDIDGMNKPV

On to `O=C(Cc1ccc(Cl)c(Cl)c1)N1CCN(C(=O)C2(O)CCC2)[C@@H]2COC[C@H](N3CCCC3)[C@H]21` (single isomer, unassigned) [Example 5A128A], for which the IC50 – broadly, the concentration that inhibits the measured activity by half – turned out to be 103 nM.

These data come from patent US20220324876A1, “4-SUBSTITUTED PYRANO[3,4,b]PYRAZINE KAPPA AGONISTS FOR TREATING DRUG DEPENDENCY” (The Rockefeller University, priority 2019, published 2022).
